In ChEMBL document CHEMBL2417416, “Total synthesis and full histone deacetylase inhibitory profiling of Azumamides A-E as well as β²- epi-Azumamide E and β³-epi-Azumamide E” (J Med Chem, 2013):

Target: T1, Histone deacetylase 8 (Homo sapiens, UniProt Q9BY41)
T1 sequence (Q9BY41 whole entry): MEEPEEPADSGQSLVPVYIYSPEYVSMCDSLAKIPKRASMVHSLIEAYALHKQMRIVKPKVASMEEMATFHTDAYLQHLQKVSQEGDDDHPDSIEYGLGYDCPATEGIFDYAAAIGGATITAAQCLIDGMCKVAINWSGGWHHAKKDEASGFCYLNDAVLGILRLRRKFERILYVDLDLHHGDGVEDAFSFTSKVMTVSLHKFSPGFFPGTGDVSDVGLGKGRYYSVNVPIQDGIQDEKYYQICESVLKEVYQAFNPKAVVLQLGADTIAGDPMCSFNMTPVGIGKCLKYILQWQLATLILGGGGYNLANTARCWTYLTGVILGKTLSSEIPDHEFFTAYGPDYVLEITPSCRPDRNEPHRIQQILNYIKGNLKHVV
Assay: Inhibition of recombinant human HDAC8 enzyme using Ac-LeuGlyLys (tfa)-AMC as substrate after 15 to 30 mins

Ki: 700 nM
SMILES: O=C(CCCCCCC(=O)Nc1ccccc1)NO [VORINOSTAT]
